This is an account of results in PubChem BioAssay AID651706 (NMMLSC, 2012).

This is a selection; strong and weak results do not stand in their true shares. Some of these compounds have results that are not shown, active ones among them. The source made the active and inactive calls.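 The calls were made as follows: active = share of green or green-and-red cells above 9 and 9% in run 1 or 4 and 3% in run 2; inactive = the rest, inconclusive results apart.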

A short description of the test: inducers of myeloid progenitor differentiation, confirmation, cell-based, GFP/Mac1 flow cytometry, cherry pick 01 (AID 651706).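 Also: plate controls were double positive share in DMSO wells for no effect and share in positive control wells for full effect.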 The settings on record: ER-HoxA9 myeloid progenitors, GFP/Mac1 double-positive flow; stronger effect = higher value.
In the case of `CCN(CC)CC(C)C(C)OC(=O)C(O)(c1ccccc1)c1ccccc1` (stereo unspecified), the differentiation response was inactive: 1.4%.
